In PMC4919914:
pKd: −log10 of the molar value.

By UniProt entry, the sequences of proteins in these tests, tags left out. Where a name states a change or a piece, a line headed by the entry shows the natural chain unless it says otherwise.
UniProt Q6B856: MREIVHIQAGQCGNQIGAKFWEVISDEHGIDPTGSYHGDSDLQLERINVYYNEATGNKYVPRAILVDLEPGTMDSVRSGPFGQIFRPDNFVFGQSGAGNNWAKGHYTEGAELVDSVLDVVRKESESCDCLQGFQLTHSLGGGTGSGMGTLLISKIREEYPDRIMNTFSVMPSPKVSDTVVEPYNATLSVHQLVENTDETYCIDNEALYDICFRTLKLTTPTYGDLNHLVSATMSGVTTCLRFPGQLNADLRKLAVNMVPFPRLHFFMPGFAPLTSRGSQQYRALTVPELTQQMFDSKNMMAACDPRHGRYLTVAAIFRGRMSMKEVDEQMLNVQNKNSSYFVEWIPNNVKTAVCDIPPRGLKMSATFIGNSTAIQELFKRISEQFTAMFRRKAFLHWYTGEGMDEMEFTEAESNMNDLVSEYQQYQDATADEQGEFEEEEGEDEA

How the values were obtained:
[1] = biological target: depolymerized bovine tubulin (bovine) (UniProt Q6B856); assay: ELISA; depolymerized bovine tubulin adsorbed in the solid phase, T40 or T40P in the aqueous phase, tau binding detected with mAb 27/499
[2] = biological target: Neonatal rat tau (NT): endogenously phosphorylated neonatal rat 3-repeat tau (rat); assay: ELISA; tau (dGA, NT or NTP) adsorbed on poly(vinyl chloride) 96-well plates in 50 mM carbonate buffer, 37 °C 1 h; aqueous-phase T40 or T40P in 1% gelatin in PBST, 1 h 37 °C; bound tau detected with mAb 27/499; Langmuir fits; asymptotic constants with the species of the other phase non-limiting
[3] = biological target: Hyperphosphorylated rat tau (NTP): rat NT hyperphosphorylated in vitro (rat); assay: as above

Substance	pKd [1]	pKd [2]	Kd,Adsorbed [2] [nM]	N1 (estimate of Kd,Aqueous) [2] [nM]	N2 (estimate of Kd,Adsorbed) [2] [nM]	Q1 (estimate of Kd,Adsorbed) [2] [nM]	Q2 (estimate of Kd,Aqueous) [2] [nM]	pKd [3]	Kd,Adsorbed [3] [nM]	N1 (estimate of Kd,Aqueous) [3] [nM]	Q1 (estimate of Kd,Adsorbed) [3] [nM]	Q2 (estimate of Kd,Aqueous) [3] [nM]	N2 (estimate of Kd,Adsorbed) [3] [nM]
Full-length, non-phosphorylated recombinant human 2N4R tau (T40) (from UniProt P10636-8 1-441) (natural protein)	6.39	7.68	8.1	18.8	8.6	7.6	22.8	6.12	10.5	754	18.8	759	
Hyperphosphorylated tau (T40P): T40 tau hyperphosphorylated in vitro (from UniProt P10636-8 1-441) (natural protein; hyperphosphorylated in vitro by rat brain extract; the complete extent of phosphorylation of the many potential sites was not characterized)	5.02												
Hyperphosphorylated tau (T40P): T40 tau hyperphosphorylated in vitro (from UniProt P10636-8 1-441) (natural protein)		6.30	31.5	627	39.1	23.8	382	5.97	100	969	115	1160	86
